For one compound, IC50 results are on record in patent US8580813B2, “Cyclic azaindole-3-carboxamides, their preparation and their use as pharmaceuticals” (Sanofi, priority 2008, dated 2013).

By UniProt entry, the sequences of proteins in these tests, tags left out. Residues count along the entry.
UniProt P00797, 67-406 limits assumed: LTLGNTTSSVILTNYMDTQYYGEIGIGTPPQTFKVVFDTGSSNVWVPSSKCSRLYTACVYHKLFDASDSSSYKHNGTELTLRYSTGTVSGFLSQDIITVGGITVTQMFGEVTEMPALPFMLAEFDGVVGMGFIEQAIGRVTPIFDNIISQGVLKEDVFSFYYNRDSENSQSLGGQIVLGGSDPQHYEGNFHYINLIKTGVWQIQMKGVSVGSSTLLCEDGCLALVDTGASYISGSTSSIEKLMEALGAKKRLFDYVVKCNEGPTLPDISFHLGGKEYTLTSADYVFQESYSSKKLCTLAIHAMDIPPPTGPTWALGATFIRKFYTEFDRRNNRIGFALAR

The assay addresses Recombinant human renin (Homo sapiens, UniProt P00797). In words: Inhibition of renin (fluorogenic peptide substrate). The settings on record: read-out: IC50 values for inhibition of renin (fluorogenic peptide substrate); recombinant human renin 5 nM, substrate 10 μM, 2 h at room temperature, Tris buffer pH 8; compounds tested as the obtained salt; tested form: 2HCl. It is filed as biochemical.

Take `Cc1cccc(C)c1Oc1c(C(=O)N2CCNCC2)c2ncccc2n1-c1ccc(F)cc1`: the IC50 stood at 24 nM.

In general, IC50 refers to the midpoint of a concentration-inhibition curve.
